The list shows a part of the results. Records with an inconclusive call do not appear. Active and inactive are the calls of the source. Calls come from the whole dose curve; as a rule, active = well fitted inhibition curve with a large enough effect; inconclusive = small, poorly fitted or top-dose-only effect, or effect the other way, or another doubt; inactive = no such curve, though single readings can be large or run the other way.

The target in the test is Lysosomal alpha-glucosidase (Homo sapiens) (UniProt P10253). In words: qHTS Assay for Inhibitors of Human alpha-Glucosidase as a Potential Chaperone Treatment of Pompe Disease.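 Note: plate controls were uninhibited enzyme wells for no effect and no-enzyme background for full effect.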 The settings on record: purified human GAA, 4-MU-alpha-glucoside fluorescence; at 76.9 µM (top of the series) unless noted. On the technique in general: Quantitative high-throughput screening tests each substance at several concentrations.
For the compound `CC(C)(C)C(=O)NC(Sc1ncccn1)C(Cl)(Cl)Cl` (stereo not given), the activity change, negative = inhibition is inactive: -4.49%.

For the compound `O=P1(Nc2ncccn2)COc2ccccc2OC1`, the activity change, negative = inhibition was inactive: -0.319%.

With `O=P1(Nc2ccc(Br)cn2)COc2ccccc2OC1`, the activity change, negative = inhibition is inactive: 1.93%.

Regarding `Cc1ccc(OCC(=O)OC2CN3CCC2CC3)cc1` (stereo not given), the activity change, negative = inhibition is inactive: 4.31%.

Take `Cc1nn(-c2ccccc2)c2c1P(=O)(N1CCOCC1)N(C)C(c1ccccc1)=N2` (stereo not given): the activity change, negative = inhibition was inactive: 0.798%.

On to `O=C(/C=C/c1ccccc1)OC1CN2CCC1CC2` (stereo not given), for which the activity change, negative = inhibition was inactive: 4.21%.

`CCOC(=O)Nc1cccc([As](=O)(O)O)c1`: the activity change, negative = inhibition is inactive: 2.28%.

Consider `Cc1cc(SC(NC=O)C(Cl)(Cl)Cl)ncn1` (stereo not given), for which the activity change, negative = inhibition is inactive: 5.64%.

For `O=P(Nc1ccccn1)(c1cccc2ccccc12)c1cccc2ccccc12`, the activity change, negative = inhibition was inactive: 5.23%.

Take `Cc1cc(SC(NC(=O)c2ccccc2)C(Cl)(Cl)Cl)nc(C(C)C)n1` (stereo not given): the activity change, negative = inhibition was inactive: -12.4%.

Turning to `CCC(C)N(CC(C)C)C(=S)SC(NC(C)=O)C(Cl)(Cl)Cl` (stereo not given), the activity change, negative = inhibition was inactive: -5.13%.

Take `COP1(=S)c2c(C)nn(CCC#N)c2N=C(c2ccc(F)cc2)N1C` (stereo not given): the activity change, negative = inhibition is inactive: 0.835%.

With `O=C(COc1ccccc1)OC1CN2CCC1CC2` (stereo not given), the activity change, negative = inhibition is inactive: 9.15%.

Take `COc1ccc(N/C(=N/P(=O)(N2CCOCC2)N2CCOCC2)N2CCOCC2)cc1`: the activity change, negative = inhibition was inactive: 1.04%.

With `Cc1c2c(nc3ccccc13)SC(C(Cl)Cl)C2` (stereo not given), the activity change, negative = inhibition is inactive: -12.2%.

Turning to `O=C(OC1CN2CCC1CC2)C12CC3CC(CC(C3)C1)C2` (stereo not given), the activity change, negative = inhibition was inactive: -6.37% [at 15.4 µM].

For the compound `Cc1cc(=O)[nH]c(N[N+](=O)[O-])n1`, the activity change, negative = inhibition was inactive: -0.112%.

Take `COc1ccc2nc(NP(=O)(c3ccccc3)c3ccccc3)sc2c1`: the activity change, negative = inhibition was inactive: 7.99%.

In the case of `ClCCSc1nnc(-c2cccnc2)o1`, the activity change, negative = inhibition was inactive: -7.79%.

Consider `CCN(CC)C(=S)SC(NC=O)C(Cl)(Cl)Cl` (stereo not given), for which the activity change, negative = inhibition was inactive: 5.66%.

As for `CC(C)NC(=O)NP(=O)(Oc1ccccc1)Oc1ccccc1`, the activity change, negative = inhibition was inactive: 5.97%.

With `O=[N+]([O-])c1cc([N+](=O)[O-])c(-c2ccn[nH]2)s1`, the activity change, negative = inhibition was inactive: -0.846%.

Regarding `C[As](=O)(O)c1cccc(C(=O)O)c1`, the activity change, negative = inhibition was inactive: 3.08%.

In the case of `Cc1ccc(OP(=O)(Nc2ccc([N+](=O)[O-])cn2)Oc2ccc(C)cc2)cc1`, the activity change, negative = inhibition was inactive: -1.91%.

In the case of `Cc1ccc2nc3c(c(C)c2c1)CC(C(Cl)Cl)S3` (stereo not given), the activity change, negative = inhibition was inactive: -0.478%.

These data come from PubChem BioAssay AID1466 (National Center for Advancing Translational Sciences (NCATS), 2008).
